Test results reported in ChEMBL document CHEMBL5385841, “Recent advances in gout drugs” (Eur J Med Chem, 2023).

Target: T1, Solute carrier family 22 member 11 (Homo sapiens, UniProt Q9NSA0)
T1 sequence (Q9NSA0 whole entry): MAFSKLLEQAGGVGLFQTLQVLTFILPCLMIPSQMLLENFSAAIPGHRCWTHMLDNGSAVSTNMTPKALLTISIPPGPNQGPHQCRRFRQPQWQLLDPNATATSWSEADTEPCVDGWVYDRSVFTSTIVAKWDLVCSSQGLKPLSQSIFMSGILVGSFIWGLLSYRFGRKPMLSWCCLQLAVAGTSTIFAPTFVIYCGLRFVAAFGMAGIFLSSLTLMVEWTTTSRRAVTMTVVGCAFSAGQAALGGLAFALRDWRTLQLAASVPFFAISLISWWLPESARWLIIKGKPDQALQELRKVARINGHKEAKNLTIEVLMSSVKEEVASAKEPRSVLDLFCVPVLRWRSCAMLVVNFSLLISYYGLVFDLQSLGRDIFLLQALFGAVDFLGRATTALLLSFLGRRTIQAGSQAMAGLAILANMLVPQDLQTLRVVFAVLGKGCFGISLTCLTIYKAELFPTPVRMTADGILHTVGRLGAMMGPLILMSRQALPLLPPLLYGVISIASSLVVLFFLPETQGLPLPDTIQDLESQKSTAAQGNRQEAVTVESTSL

**Q.** How did the pIC50 turn out when `O=C(O)CSc1nnc(Br)n1-c1ccc(C2CC2)c2ccccc12` [LESINURAD] was run?
**A.** 5.43

pIC50: −log10 of the molar value.
